Laboratory results: article PMC4979564 (JCI insight, 2016)

Chains of the proteins cited; added tags and fusions are not shown.
UniProt P47746, whole entry: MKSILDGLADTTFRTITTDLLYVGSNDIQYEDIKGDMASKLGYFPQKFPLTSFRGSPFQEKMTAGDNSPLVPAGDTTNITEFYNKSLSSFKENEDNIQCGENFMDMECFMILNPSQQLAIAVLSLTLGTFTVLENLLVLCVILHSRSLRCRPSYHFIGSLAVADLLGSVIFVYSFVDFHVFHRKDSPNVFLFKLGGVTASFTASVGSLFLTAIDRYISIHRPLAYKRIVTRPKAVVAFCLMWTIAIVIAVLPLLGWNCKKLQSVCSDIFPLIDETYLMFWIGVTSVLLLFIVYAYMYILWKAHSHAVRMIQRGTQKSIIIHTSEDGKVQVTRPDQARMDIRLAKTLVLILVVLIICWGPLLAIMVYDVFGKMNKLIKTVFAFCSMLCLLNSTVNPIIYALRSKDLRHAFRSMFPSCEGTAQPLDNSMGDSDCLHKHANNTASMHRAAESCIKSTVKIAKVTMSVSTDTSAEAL

Biological target: CB1R (Mus musculus, UniProt P47746)
Assay: Brain CB1R occupancy by CB1R PET
Assay type: in vivo
Details: 3 mg/kg

## Cc1c(C(=O)NN2CCCCC2)nn(-c2ccc(Cl)cc2Cl)c1-c1ccc(Cl)cc1 [rimonabant, reference compound]
  displacement of a CB1R PET ligand in brain: significant, marked displacement
